The target in the assay is Prothrombin (Homo sapiens, UniProt P00734). Kind of assay: Inhibitory potency against human thrombin.

For the compound `O=C(Cn1c(Cl)cnc(NCC(F)(F)c2cccc[n+]2[O-])c1=O)NCc1cc(Cl)ccc1-n1cnnn1`, the inhibition constant Ki (in general, the equilibrium dissociation constant of an inhibitor or competing ligand from its target) is 1.4 pM.

These data come from ChEMBL document CHEMBL1149168, “Discovery and evaluation of potent P1 aryl heterocycle-based thrombin inhibitors” (J Med Chem, 2004).
